SMILES strings stand for the structures. pIC50: −log10 of the molar value. Where two headings read alike, the source gives them in different places.

Protein sequences, listed by entry. Tags and fused reporters are not part of them. Lines headed by an entry give the natural chain unless they say otherwise; changes in a name come on top.
UniProt P23739: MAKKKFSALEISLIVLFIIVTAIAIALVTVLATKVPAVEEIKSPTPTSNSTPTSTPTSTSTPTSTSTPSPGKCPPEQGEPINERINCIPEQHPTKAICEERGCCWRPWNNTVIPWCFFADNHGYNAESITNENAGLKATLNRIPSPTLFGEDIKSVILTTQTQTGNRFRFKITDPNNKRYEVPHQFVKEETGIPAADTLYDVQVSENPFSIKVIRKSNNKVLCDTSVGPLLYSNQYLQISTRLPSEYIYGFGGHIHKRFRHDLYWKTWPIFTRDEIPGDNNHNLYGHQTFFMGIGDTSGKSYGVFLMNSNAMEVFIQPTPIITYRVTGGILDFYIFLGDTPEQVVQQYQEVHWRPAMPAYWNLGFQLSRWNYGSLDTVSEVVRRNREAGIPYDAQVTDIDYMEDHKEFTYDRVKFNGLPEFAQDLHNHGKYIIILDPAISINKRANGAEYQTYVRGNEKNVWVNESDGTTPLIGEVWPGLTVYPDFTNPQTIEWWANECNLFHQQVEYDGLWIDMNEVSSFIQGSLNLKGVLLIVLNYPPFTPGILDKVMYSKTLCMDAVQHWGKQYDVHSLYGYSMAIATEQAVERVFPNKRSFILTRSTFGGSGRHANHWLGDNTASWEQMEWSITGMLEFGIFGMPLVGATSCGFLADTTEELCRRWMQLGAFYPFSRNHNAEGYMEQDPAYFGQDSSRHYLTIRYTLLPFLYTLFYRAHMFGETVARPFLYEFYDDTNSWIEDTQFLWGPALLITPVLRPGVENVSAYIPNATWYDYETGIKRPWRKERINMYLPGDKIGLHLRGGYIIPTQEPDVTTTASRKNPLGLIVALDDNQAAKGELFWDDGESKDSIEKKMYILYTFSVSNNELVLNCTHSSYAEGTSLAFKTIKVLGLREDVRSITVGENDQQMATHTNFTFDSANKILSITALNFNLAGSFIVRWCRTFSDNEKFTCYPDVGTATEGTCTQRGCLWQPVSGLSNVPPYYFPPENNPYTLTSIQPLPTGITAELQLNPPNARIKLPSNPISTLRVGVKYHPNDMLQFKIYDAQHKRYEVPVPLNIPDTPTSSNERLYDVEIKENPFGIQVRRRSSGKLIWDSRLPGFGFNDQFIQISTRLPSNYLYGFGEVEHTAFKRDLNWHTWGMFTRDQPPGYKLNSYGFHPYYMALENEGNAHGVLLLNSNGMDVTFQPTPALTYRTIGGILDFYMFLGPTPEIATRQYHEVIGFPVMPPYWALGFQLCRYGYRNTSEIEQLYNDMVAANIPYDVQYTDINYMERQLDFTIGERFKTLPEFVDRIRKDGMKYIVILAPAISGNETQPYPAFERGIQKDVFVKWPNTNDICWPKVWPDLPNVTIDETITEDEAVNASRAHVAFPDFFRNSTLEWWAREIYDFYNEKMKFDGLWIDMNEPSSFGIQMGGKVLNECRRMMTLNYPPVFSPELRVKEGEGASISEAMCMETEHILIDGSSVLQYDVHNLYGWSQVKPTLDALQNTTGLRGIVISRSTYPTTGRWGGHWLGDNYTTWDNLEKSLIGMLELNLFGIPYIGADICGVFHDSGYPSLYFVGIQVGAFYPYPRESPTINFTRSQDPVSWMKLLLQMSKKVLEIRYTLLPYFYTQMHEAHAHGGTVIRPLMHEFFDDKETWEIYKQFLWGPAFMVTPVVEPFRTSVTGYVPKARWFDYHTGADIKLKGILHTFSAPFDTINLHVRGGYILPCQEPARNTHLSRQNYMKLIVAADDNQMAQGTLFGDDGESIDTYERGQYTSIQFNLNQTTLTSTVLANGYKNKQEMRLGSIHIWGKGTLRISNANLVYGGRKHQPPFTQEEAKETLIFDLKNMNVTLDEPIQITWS

For assay [1], the target named is T1, rat intestinal sucrase (Rattus norvegicus, UniProt P23739).
T1 construct: rat small intestinal brush border membrane vesicles were first prepared; from tissue; host or cells: rat small intestine, brush border membrane vesicles
The assay is described as follows: In vitro α-glucosidase inhibition assay, rat intestinal sucrase. The format is biochemical. Conditions: rat small intestinal brush border membrane vesicles; sucrose substrate; mean ± SD (n = 3); read-out: IC50 against sucrase. As to the method: The testing method previously described was modified and used. Thus, rat small intestinal brush border membrane vesicles were first prepared, and its suspension in 0.1 M maleate buffer (pH = 6.0) was used as small intestinal α-glucosidases of maltase and sucrase. A test compound was dissolved in dimethylsulfoxide (DMSO), and the resulting solution was diluted with 0.1 M maleate buffer to prepare the test compound solution (concentration of DMSO: 10%). The substrate solution in maleate buffer ([…], 50 μL), a test compound solution (25 μL), and the enzyme solution (25 μL) were mixed and incubated at 37 °C for 30 min. After incubation, the solution was immediately heated by boiling water for 2 min to stop the reaction, and the solution was mixed with water (150 μL). Glucose concentration was determined by the glucose-oxidase method. […] The IC50 value was determined graphically by a plot of percent inhibition versus log of the test compound.

For assay [2], the target named is T1, rat intestinal sucrase. Particulars: literature value ^[a]; read-out: IC50 against sucrase; cited from earlier work.
Assay [3] addresses T1, rat intestinal sucrase. The assay can be described thus: Inhibition-kinetic study (Lineweaver–Burk), sucrase. Format: biochemical. Particulars: small intestinal α-glucosidase, read-out: Ki Sucrase (Km = 23.56 mM) (converted). As to the method:
In order to explore the inhibitory mechanism of the α-glucosidase by this family of compounds, enzyme kinetic assays were conducted on 20a, 20c, and 10, followed by a detailed kinetic analysis using the Lineweaver–Burk plots. (Figure 3) The small intestinal brush border membrane vesicles were incubated with varying concentrations of maltose (3.27 mg/mL) for maltase assays and sucrose (52.37 mg/mL) for sucrase assays.
For kinetic analyses of maltase and sucrase by compounds (20a, 20c, and 10), the enzyme and test samples (1.0 mg/mL for maltase and 0.2 mg/mL for sucrase) were incubated with increasing concentrations of maltose (2.5, 5, 10, 20, 50, 100 μM) and sucrose (5, 10, 20, 50, 100, 1000 μM) at 37 °C for 30 min. The tube was immediately immersed in boiling water for 2 min to stop the reaction, then cooled with water. The glucose concentration was determined by the glucose-oxidase method. […] The Lineweaver–Burk equation follows as: 1/V=Km/Vmax×[…]
Ki values for each inhibitor were determined by the equation: Ki=[I]×Km/[[…]−Km]

For `C[C@H]1O[C@H](O[C@H]2[C@H](O)[C@@H](O)[C@@H](O[C@H]3[C@H](O)[C@@H](O)C(O)O[C@@H]3CO)O[C@@H]2CO)[C@H](O)[C@@H](O)[C@@H]1N[C@H]1C=C(CO)[C@@H](O)[C@H](O)[C@H]1O` (stereo partly drawn) [acarbose], the negative-log IC50 (pIC50) (usually −log10 of the IC50, conventionally taken in molar units) at rat intestinal sucrase [1] is 5.66; at rat intestinal sucrase [2] it was 5.60. Moreover, at rat intestinal sucrase [3], the inhibition constant (Ki) (in general, a measure of affinity in units of concentration, obtained from inhibition or displacement) was 1040 nM.

These data come from PMC12250965, “Design and Synthesis of Sulfonium and Selenonium Derivatives Bearing 3′,5′-O-Benzylidene Acetal Side Chain Structure as Potent α-Glucosidase Inhibitors” (Molecules, 2025).
